Measured values published in paper PMC8000592, “Discovery and Optimization of Selective Inhibitors of Meprin α (Part I)” (Pharmaceuticals, 2021).

Legend:
meprin α = target: T1, meprin α (Homo sapiens, UniProt Q16819); assay: Meprin α assay, fluorogenic substrate (Mca)-YVADAPK-(K-ε-Dnp), 384 and 1536 well plate formats; format: biochemical; conditions: versus meprin β, in words
T1 sequence (Q16819 66-593 limits assumed): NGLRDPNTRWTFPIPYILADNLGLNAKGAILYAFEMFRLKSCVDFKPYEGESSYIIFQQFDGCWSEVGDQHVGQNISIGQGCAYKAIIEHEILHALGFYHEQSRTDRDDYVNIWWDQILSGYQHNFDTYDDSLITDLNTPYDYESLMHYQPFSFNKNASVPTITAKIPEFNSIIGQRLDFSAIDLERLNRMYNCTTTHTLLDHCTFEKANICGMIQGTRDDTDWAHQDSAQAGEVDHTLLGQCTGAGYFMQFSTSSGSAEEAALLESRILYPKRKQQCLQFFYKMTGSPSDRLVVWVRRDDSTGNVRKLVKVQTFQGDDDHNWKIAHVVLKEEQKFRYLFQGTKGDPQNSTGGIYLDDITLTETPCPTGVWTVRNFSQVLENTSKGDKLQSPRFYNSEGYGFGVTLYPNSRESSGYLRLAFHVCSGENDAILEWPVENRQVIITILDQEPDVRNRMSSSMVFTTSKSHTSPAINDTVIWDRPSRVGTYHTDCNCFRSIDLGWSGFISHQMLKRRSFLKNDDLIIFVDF
From the text: The meprin α and meprin β assays, which utilize the substrates (Mca)-YVADAPK-(K-ε-Dnp) and (Mca)-EDEDED-(K-ε-Dnp), respectively, have been described previously. To enable an ultra-high-throughput screening (uHTS) campaign, we proceeded to miniaturize both assays to 1536 well plate format (wpf). First, we recapitulated the assays in 1536 well plate using reagents at the same concentrations as in 384 well plate format assays by scaling the volume down by the factor of 2.5.
Both assays followed the same general protocol. […] Reactions were incubated at RT for 1 h, after which the fluorescence was measured using the Synergy H4 multimode microplate reader (Biotek Instruments) (λexcitation = 324 nm, λemission = 390 nm).
Both assays followed the same general protocol. […] Reactions were incubated at RT for 1 h, after which the fluorescence was measured using the Viewlux multimode microplate reader (Perkin Elmer) (λexcitation = 324 nm, λemission = 390 nm).
The miniaturized 1536-well plate format meprin α and meprin β assays were used to screen a collection of approximately 650,000 compounds (The Scripps Research library, La Jolla, CA, USA) on the automated Kalypsys/GNF platform at The Scripps Research Molecular Screening Center (SRMSC, Jupiter, FL, USA: http://hts.florida.scripps.edu/). […] Sample to background (S/B) ratios, as well as Z and Z’ values, were calculated on a per plate basis as described 14. […]

MMP and ADAM = conditions: cited from earlier work

Structure (SMILES): O=C(COc1ccc(Cl)cc1Cl)NO [Compound 1596857]
- selectivity for meprin α (meprin α): show selectivity for meprin α

Structure (SMILES): Cc1nc(/N=N/c2cc(S(=O)(=O)O)c3cc([N+](=O)[O-])cc(S(=O)(=O)O)c3c2)c(COP(=O)(O)O)c(C=O)c1O [PPNDS]
- selectivity against adamalysins and matrixins (MMP and ADAM): good selectivity
